Data published in patent US20110045032A1, “COMPOSITION, FORMULATIONS & KIT FOR TREATMENT OF RESPIRATORY AND LUNG DISEASE WITH DEHYDROEPIANDROSTERONE(S) STEROID & AN ANTI-MUSCARINIC AGENT(S)” (priority 2001, published 2011).

Test system: Intracellular Adenosine in various Rat Tissues
Settings: in vivo
Method: Folinic acid (50 mg/kg) was administered intraperitoneally once daily for fourteen days. […] Hearts were removed from animals and flash frozen in liquid nitrogen with 10 seconds of death. Liver and lungs were removed en bloc and flash frozen with 30 seconds of death. Brain tissue was subsequently dissected.

C[C@]12CC[C@H](O)CC1=CC[C@@H]1[C@@H]2CC[C@]2(C)C(=O)CC[C@@H]12 [DHEA, dehydroepiandrosterone]
Intracellular Adenosine, Liver: 16.4 ± 1.4 nmols/mg protein
